Earlier results in patent US20120142750A1, “INDOLEAMINE 2,3-DIOXYGENASE PATHWAYS IN THE GENERATION OF REGULATORY T CELLS” (Regents of the University of Minnesota, priority 2005, published 2012).

By UniProt entry, the sequences of proteins in these tests, tags left out.
UniProt P14902, whole entry: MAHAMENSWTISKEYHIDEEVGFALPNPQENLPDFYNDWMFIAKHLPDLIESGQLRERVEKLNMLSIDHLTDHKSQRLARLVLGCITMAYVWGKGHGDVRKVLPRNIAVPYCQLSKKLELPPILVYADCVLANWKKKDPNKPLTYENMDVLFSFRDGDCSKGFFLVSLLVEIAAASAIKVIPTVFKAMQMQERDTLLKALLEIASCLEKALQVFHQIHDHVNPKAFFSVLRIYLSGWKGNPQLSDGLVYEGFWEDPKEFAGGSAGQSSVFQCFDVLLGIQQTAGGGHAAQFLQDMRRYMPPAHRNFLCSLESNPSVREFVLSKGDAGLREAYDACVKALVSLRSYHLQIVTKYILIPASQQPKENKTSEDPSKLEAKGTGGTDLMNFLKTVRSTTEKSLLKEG

How the values were obtained:
IDO [1] = settings: approximate literature value; cited from earlier work
IDO [2] = biological target: IDO (Homo sapiens, UniProt P14902); settings: approximate literature value; cited from earlier work

| SMILES | pKi (IDO [1]) | pEC50 (IDO [2]) |
| --- | --- | --- |
| CNC(=N)NC(=N)Nc1cc2ccccc2c2ccccc12 | 5.82 | 5.52 |
| N=C(c1ccc2ccccc2c1)c1ccccc1Cc1ccccc1 | – | 5.30 |
| CC(=O)Oc1cn(C(C)=O)c2ccc(Br)cc12 | – | 3.70 |
| O=C1C(Cc2c[nH]c3ccccc23)NC(=S)N1c1ccccc1 (stereo not drawn) | – | 4.00 |
| O=C1N=c2ccc(S(=O)(=O)O)cc2=C1NNc1ccccc1[N+](=O)[O-] | – | 5.30 |
| CN1C(=O)C(Cc2c[nH]c3ccccc23)NC1=S (stereo not drawn) | 4.96 | 4.70 to 4.92 |
| OCc1c[nH]c2ccccc12 | – | 4.00 |
| C=CCN1C(=O)C(Cc2c[nH]c3ccccc23)NC1=S (stereo not drawn) | – | 4.30 |
| COC(=O)C1Cc2c([nH]c3ccccc23)C(C(=O)OC)Cc2c1[nH]c1ccccc21 (stereo not drawn) | – | 6.00 |
| COc1ccc(C(Nc2ccccn2)c2cc(C(C)(C)C)cc(C(C)(C)C)c2O)cc1 (stereo not drawn) | – | 5.22 |

pEC50, pKi: −log10 of the molar value.
